Experimental findings from patent US9180129B2, “Combination of lapatinib and trametinib” (NOVARTIS AG, priority 2010, dated 2015) are described below.

For this assay, the system named is KPL4. Description: Cell growth inhibition assay, KPL4 (breast HER2+). It is filed as cell-based, Human. The settings on record: 3 days, read-out: Single agent IC50 (μM), mean ± STD. The procedure:
Human tumor cell lines from breast cancer, AU565, BT474, COLO824, HCC1419, HCC1954, HCC2218, JIMT1, MDA-MB-175VII, MDA-MB-453, SK-BR-3 and SUM149, colorectal cancer, LS174T, NCI-H508, NCI-H747, SW403 and T84, melanoma, A375S2, CHL-1 and SK-MEL-5; pancreatic cancer, Capan-1, HPAF-11 and SUIT2, and bladder cancer, 647V, BFTC-905 and SW780 were cultured in RPMI 1640 media containing 10% FBS; BT-474-J4, a breast cancer cell line acquired resistance to Compound A was cultured in RPMI 1640 media containing 10% FBS and 1 μM Compound A. KPL4 breast cancer line was cultured in DMEM containing 5% FBS. All lines were kept in a humidified incubator at 37° C. in 95% air and 5% CO2. […]
All cells were cultured for a minimum of 72 hours prior to cell plating. […] ATP levels were determined by adding Cell Titer Glo® reagent (Promega) according to the manufacturer's protocol. Briefly, Cell Titer Glo® reagent was added to each plate, incubated for 20 minutes then the luminescent signal was read on the SpectraMax L plate reader with a 0.5 sec integration time.
Inhibition of cell growth was estimated after treatment with compound or a combination of compounds for three days and comparing the signal to cells treated with vehicle (DMSO). Cell growth was calculated relative to vehicle (DMSO) treated control wells. […]

As usually defined, the IC50 is the concentration that inhibits the measured activity by half. `CS(=O)(=O)CCNCc1ccc(-c2ccc3ncnc(Nc4ccc(OCc5cccc(F)c5)c(Cl)c4)c3c2)o1` [Compound A, N-{3-Chloro-4-[(3-fluorobenzyl)oxy]phenyl}-6-[5-({[2-(methanesulphonyl)ethyl]amino}methyl)-2-furyl]-4-quinazolinamine]: the IC50 worked out at 0.568 ± 0.083 µM.
